Patent EP0363041A1 (priority 1988, dated 1990)
Only a part of the results on these compounds is given; other tests are left out.

Key:
Conditions in all cases: morphine = 100; competitive ELISA on NM-BSA
MO-3 = system: MO-3
MO-4 = system: MO-4
MO-2 = system: MO-2
MO-5 = system: MO-5
MO-6 = system: MO-6

CCC(=O)N(c1ccccc1)C1CCN(CCc2ccccc2)CC1
reactivity ratio with morphine, MO-3 (MO-3): < 0.01
reactivity ratio with morphine, MO-4 (MO-4): < 0.001
reactivity ratio with morphine, MO-2 (MO-2): < 1.0
reactivity ratio with morphine, MO-5 (MO-5): < 0.001
reactivity ratio with morphine, MO-6 (MO-6): < 0.1
